## Apparent affinities of Ab-14 variants for a coronavirus HR2 peptide

Values reported by Li et al. 2023, doi:10.1038/s41467-023-39022-2 (FLAb copy).

The target is the same throughout: PDVDLGDISGINAS, from the HR2 region of SARS-CoV-2 spike.

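The parent was found by panning a naive human phage display library on the peptide. This is the validation round: designs drawn from the data on random variants, tested in the same kind of assay. Several design methods are mixed in this list. The assay is AlphaSeq: two haploid yeast populations carry antibody and antigen on their surface. Binding brings cells together so that they mate, and sequencing counts the barcode pairs among the diploids. The ratio of observed to expected reads was calibrated, replicate by replicate, on BCL2-family standards whose Kd was known from biolayer interferometry. There are six technical replicates.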

Parent scFv Ab-14: VH joined to VL by a 15-residue (Gly4Ser)3 linker. Changes lie in the light chain CDRs alone.
VH: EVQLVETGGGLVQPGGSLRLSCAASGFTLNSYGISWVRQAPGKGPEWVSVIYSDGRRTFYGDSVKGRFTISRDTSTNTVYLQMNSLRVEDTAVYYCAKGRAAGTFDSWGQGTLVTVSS
VL: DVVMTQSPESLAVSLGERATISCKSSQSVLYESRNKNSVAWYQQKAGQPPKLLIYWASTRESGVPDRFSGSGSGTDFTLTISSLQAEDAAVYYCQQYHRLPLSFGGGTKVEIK

Sequences are complete VL domains. Kd is apparent (estimated from mating counts) and averaged on the log scale over replicates with a signal. Smaller is tighter. Where no diploid with the target was found in any replicate, the entry reads "nd": below detection, most likely a poor binder, though not proof of it. The authors' rule: three or more of the six replicates give a measured affinity, fewer mean a poor binder. A sequence measured in both rounds can read differently, since the two assays cover different ranges. Nonspecific signal, from three strains lacking the peptide, appeared in 4% of pairings of all light chain designs, centred on 430 nM (5% of these signals below 38 nM); values are not corrected for it.

{"VL": "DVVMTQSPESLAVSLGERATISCKITQSVHYESPNKNSVAWYQQKAGQPPKLLIYTASTRESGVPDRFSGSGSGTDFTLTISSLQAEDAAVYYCQQYHRLPLSFGGGTKVEIK", "Kd (apparent)": "24 nM", "replicates with signal": "6 of 6"}
{"VL": "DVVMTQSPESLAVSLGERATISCKLEQSVPYESRNKNSVAWYQQKAGQPPKLLIYNASTRESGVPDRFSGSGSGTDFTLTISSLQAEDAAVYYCQQYHRLPLSFGGGTKVEIK", "Kd (apparent)": "860 pM", "replicates with signal": "6 of 6"}
{"VL": "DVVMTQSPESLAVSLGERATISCHFSQVTMYGMWNKNSVAWYQQKAGQPPKLLIYQTSTREEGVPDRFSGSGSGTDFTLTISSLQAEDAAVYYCQQYDRLPLSFGGGTKVEIK", "Kd (apparent)": "16 nM", "replicates with signal": "6 of 6"}
{"VL": "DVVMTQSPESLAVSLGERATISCKVLQEMPYESRMANSVAWYQQKAGQPPKLLIYNASQRESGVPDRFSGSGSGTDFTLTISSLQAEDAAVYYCQQYHRLPLSFGGGTKVEIK", "Kd (apparent)": "5.8 nM", "replicates with signal": "6 of 6"}
{"VL": "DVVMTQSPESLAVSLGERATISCKVRQSTLYESRNKNSVAWYQQKAGQPPKLLIYWASTRESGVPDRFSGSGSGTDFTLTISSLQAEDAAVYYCQQYHQLPLSFGGGTKVEIK", "Kd (apparent)": "2.9 nM", "replicates with signal": "6 of 6"}
{"VL": "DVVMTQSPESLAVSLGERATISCKSMQSVLYESRNKNSVAWYQQKAGQPPKLLIYWANTRESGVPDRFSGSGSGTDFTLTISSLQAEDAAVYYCQQYHILPLSFGGGTKVEIK", "Kd (apparent)": "nd", "replicates with signal": "0 of 6"}
{"VL": "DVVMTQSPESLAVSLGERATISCHMSMLTMMGSRHRNSVAWYQQKAGQPPKLLIYQMTTRENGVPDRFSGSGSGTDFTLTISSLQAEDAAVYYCQQYDRLPLMFGGGTKVEIK", "Kd (apparent)": "8.0 nM", "replicates with signal": "6 of 6"}
{"VL": "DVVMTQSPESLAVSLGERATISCKLSQSVLYESRNKNSVAWYQQKAGQPPKLLIYDASTRESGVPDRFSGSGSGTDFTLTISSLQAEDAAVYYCAQYHRLPSSFGGGTKVEIK", "Kd (apparent)": "nd", "replicates with signal": "0 of 6"}
{"VL": "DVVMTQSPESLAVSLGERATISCHTSDLIMVASRNKNSVAWYQQKAGQPPKLLIYEESTRPDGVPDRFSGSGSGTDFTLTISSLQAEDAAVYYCQQYHRLPLSFGGGTKVEIK", "Kd (apparent)": "7.4 nM", "replicates with signal": "6 of 6"}
{"VL": "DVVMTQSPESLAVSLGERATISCHISQSTDLESVHKNSIAWYQQKAGQPPKLLIYDLMTRESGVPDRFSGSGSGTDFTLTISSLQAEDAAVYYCQQYHRLPLSFGGGTKVEIK", "Kd (apparent)": "2.2 nM", "replicates with signal": "6 of 6"}
{"VL": "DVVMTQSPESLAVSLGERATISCKLSQSFLYESRNKNNVAWYQQKAGQPPKLLIYNASTRESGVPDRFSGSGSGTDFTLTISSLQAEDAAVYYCQQYHRLPLSFGGGTKVEIK", "Kd (apparent)": "370 pM", "replicates with signal": "6 of 6"}
{"VL": "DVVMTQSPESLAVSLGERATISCKSSQSVLYEERYMNSVAWYQQKAGQPPKLLIYWASTRESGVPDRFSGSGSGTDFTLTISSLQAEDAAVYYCQQYHRLPLSFGGGTKVEIK", "Kd (apparent)": "8.9 nM", "replicates with signal": "1 of 6"}
{"VL": "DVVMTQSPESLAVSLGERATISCHLSQSVLYESRNKNSVAWYQQKAGQPPKLLIYHASTRESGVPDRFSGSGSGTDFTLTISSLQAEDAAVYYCQQYHRLPLSFGGGTKVEIK", "Kd (apparent)": "10 nM", "replicates with signal": "6 of 6"}
{"VL": "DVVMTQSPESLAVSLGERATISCKLSQSVEYESRQKNSVAWYQQKAGQPPKLLIYNASTRLSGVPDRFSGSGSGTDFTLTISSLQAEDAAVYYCQQYHRLPLSFGGGTKVEIK", "Kd (apparent)": "1.6 nM", "replicates with signal": "6 of 6"}
{"VL": "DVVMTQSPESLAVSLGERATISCKLSQSVLYESRNKNNVAWYQQKAGQPPKLLIYGASTRESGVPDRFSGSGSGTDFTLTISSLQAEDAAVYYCQAYHRLPLSFGGGTKVEIK", "Kd (apparent)": "2.1 nM", "replicates with signal": "6 of 6"}

The closing 2 entries, repeated:

VL	Kd (apparent)	replicates with signal
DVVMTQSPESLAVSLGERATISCKLSQSVEYESRQKNSVAWYQQKAGQPPKLLIYNASTRLSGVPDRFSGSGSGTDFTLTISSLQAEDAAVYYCQQYHRLPLSFGGGTKVEIK	1.6 nM	6 of 6
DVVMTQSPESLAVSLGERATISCKLSQSVLYESRNKNNVAWYQQKAGQPPKLLIYGASTRESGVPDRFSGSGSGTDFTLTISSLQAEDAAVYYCQAYHRLPLSFGGGTKVEIK	2.1 nM	6 of 6